According to patent US20240191187A1, “MEDIA AND METHODS FOR GROWING MAMMARY ORGANOIDS” (STEMCELL TECHNOLOGIES CANADA INC., priority 2021, published 2024):

Tests used:
[1] = tested on: human mammary epithelial cells; assay: Total cell count among formed human mammary organoids; type: cell-based; settings: vs condition where BMP signaling not modulated or inhibited
Description: Fragments of human mammary epithelial cells were isolated from tissue samples obtained from academic collaborators, as follows. Resected tissue samples were minced in a petri dish using a scalpel to cut in a cross-hatched pattern. The minced tissue samples were placed in a dissociation flask in standard culture medium supplemented with BSA, insulin, collagenase and hyaluronidase. The flask was gently shaken overnight on an orbital shaker placed in a 37° C. tissue incubator. The following morning the floating layer of fat was removed by pipette, and the remaining liquid was transferred to a tube and briefly centrifuged at low rpm (˜80 g for 30 seconds). The pellet (A pellet) was set aside and the supernatant was further centrifuged for an incrementally longer period of time and at an incrementally higher rpm (˜200 g for 4 minutes). […]
The effects of modulating signaling through BMP were analyzed across multiple experiments in terms of total cell count among formed organoids (FIG. 9A) and the lineage balance of the cells among formed organoids (FIG. 9B). […]
The effects of modulating signaling through an ERBB receptor family member were analyzed across multiple experiments in terms of total cell count among formed organoids (FIG. 13A) and the lineage balance of the cells among formed organoids (FIG. 13B). […]

[2] = tested on: human mammary epithelial cells; assay: Human mammary organoid cell lineage balance by flow cytometry; settings: just prior to first passage; ~50 ng/mL BMP2 or BMP4; ~25-200 ng/mL NOGGIN or ~10-100 nM LDN193189

B1: BMP2: BMP signaling activator (protein, UniProt P12643 283-396, looked up)
Bone morphogenetic protein 2: QAKHKQRKRLKSSCKRHPLYVDFSDVGWNDWIVAPPGYHAFYCHGECPFPLADHLNSTNHAIVQTLVNSVNSKIPKACCVPTELSAISMLYLDENEKVVLKNYQDMVVEGCGCR
total cell count among formed organoids, BMP signaling modulators [1]: a marked net loss of total cells
cell lineage balance, BMP signaling modulators [2]: significant increase in basal cells and reduction in luminal cells
